# From patent US10786505B2, “Administration of NEDD8-activating enzyme inhibitor and chemotherapeutic agents” (Millennium Pharmaceuticals, Inc., priority 2013, dated 2020)
# System: EPLC-272H
# Assay: In vitro cell viability combination assay (CellTiter-Glo)
# Type: cell-based
# Conditions: agent combined with MLN4924, vehicle PBS, 72 hr
compound,measurement,value
N.N.O=C([O-])C1(C(=O)[O-])CCC1.[Pt+2] [carboplatin],Combination Index,1.62 ± 0.03
same,Nonlinear Blending,−37 ± 2
